This note sets out measurements from ChEMBL document CHEMBL1158318, “Two 5-HT 1A Receptor-Interactive Tryptamine Derivatives from the Unripe Fruit of Evodia rutaecarpa” (J Nat Prod, 1997).

Amino acid sequences for entries named in this document (tags omitted).
UniProt P08908, whole entry: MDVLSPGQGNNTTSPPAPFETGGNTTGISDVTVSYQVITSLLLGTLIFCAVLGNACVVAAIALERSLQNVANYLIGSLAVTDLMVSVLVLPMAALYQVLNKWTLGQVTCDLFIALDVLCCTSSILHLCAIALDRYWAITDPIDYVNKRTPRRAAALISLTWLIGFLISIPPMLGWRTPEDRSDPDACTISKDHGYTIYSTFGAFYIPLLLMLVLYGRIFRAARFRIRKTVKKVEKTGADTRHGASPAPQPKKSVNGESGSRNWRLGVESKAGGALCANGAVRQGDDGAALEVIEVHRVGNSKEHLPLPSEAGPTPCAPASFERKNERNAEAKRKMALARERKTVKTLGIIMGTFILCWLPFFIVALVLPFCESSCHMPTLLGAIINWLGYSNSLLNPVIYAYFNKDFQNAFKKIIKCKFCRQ

In the assay the target is 5-hydroxytryptamine receptor 1A (Homo sapiens, UniProt P08908). The assay can be described thus: Displacement of [3H]8-OH-DPAT from 5HT1A receptor by vacuum filtration. In general terms: Displacement assays read how much labelled ligand stays bound in the presence of the test substance.

As to `COc1ccc2[nH]cc(CCN(C)C)c2c1` [MEBUFOTENIN], the affinity corresponds to a Ki of 0.028 µM.
